Measured values from publication PMC9852224.

Target: BIM (UniProt O43521)
Experiment: FLAG co-immunoprecipitation, immunoblot
Settings: reference: WT-FLAG-MCL-1; sites T163

Mcl-1 (from UniProt Q07820) T163A-FLAG-MCL-1
binding against the reference: lost
